Measured values taken from patent publication US10857139B2 (dated 2020).

Tested on: androgen receptor (AR)
Test: Secreted PSA induced by R1881 in hormone refractory (HR) LNCaP/AR cells (PSA ELISA)
Type: cell-based
Conditions: FIG. 3, R1881, 5 days incubation

Compound: CNC(=O)c1ccc(N2C(=S)N(c3cnc(C#N)c(C(F)(F)F)c3)C(=O)C23CCC3)cc1F [A52, 4-[7-(6-cyano-5-trifluoromethylpyridin-3-yl)-8-oxo-6-thioxo-5,7-diazaspiro[3,4]oct-5-yl]-2-fluoro-N-methylbenzamide]
- antagonist effect on HR cancer cells (secreted PSA): antagonist effect
